ERp5 block = inhibitors of ERp5-driven insulin aggregation, primary screen, biochemical, turbidity, absorbance 650 nm, single point; inhibition, % at 9.99 µM; 90 min; Protein disulfide-isomerase A6 (Homo sapiens), Q15084; 0.05% of 350,000 active;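 active = mean replicate inhibition above about 25%, with every replicate also reaching it, limit read from the data, passing the limit was not always enough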
PDI turbidity = inhibitors of human PDI, primary screen, biochemical, turbidity, single point, plate reader. PDI insulin aggregation turbidity, A650, 90 min. inhibition, % at 10 µM. 0.052% of 350,000 active. AID 588391, 2011;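 active = mean inhibition across replicates of 30% or more, whatever share of single replicates reach that level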
GSIS activator = GLuc luminescence reporter in INS-1E cells, primary screen for activators of glucose-dependent secretion of insulin. INS-1E GLuc reporter insulin secretion, 2-3 h. 0.61% of 370,000 active. activation, % at 16.6 µM;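 active = lowest replicate activation of at least 40%, so every replicate reaches that level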;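 also: 0% = median of neutral control wells and 100% = median of IBMX positive control wells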
Yeast UUG start = modulators of start codon recognition fidelity in yeast; AID 602363; activity score, % at 18.7 µM; S. cerevisiae UUG-firefly luciferase reporter, luminescence/redox ratio; actives 0.13% (n = 350,000);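 active = replicate mean at a twofold rise or more, about +100% in these data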;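 note: firefly luciferase made from a UUG start codon reports start codon fidelity; reporter light over untreated wells divided by growth signal over untreated wells; some hits fall short of that in this replicate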
Rev-erbA mod = modulators of Rev-erb alpha DNA binding, primary screen, biochemical, FITC-DNA, fluorescence polarization, uHTS; Nuclear receptor subfamily 1 group D member 1 (Homo sapiens), P20393; Rev-erbα–FITC-DNA binding, 90 min; activity, % at 10 µM; 0.79% of 370,000 active;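 active = activity above about 14%, limit read from the data; passing the limit was not always enough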;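 also: 0% = DMSO wells with 35 nM protein and 100% = DMSO wells with 750 nM protein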
SMARCA2 act = SMARCA2 (BRM) function activators, primary screen, cell-based, luminescence, high throughput | MG213 cells, MMTV-luciferase reporter, dexamethasone, overnight | activation, % at 9.1 µM | 1% of 370,000 active | AID 652017, 2013; in the data active = activation above about 7.8%;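 also: 0% = vehicle wells and 100% = reference activator wells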
SMARCA2 conf = SMARCA2 (BRM) function activators, confirmation, cell-based, luminescence, triplicate; 30% of 3,500 active; MG213 cells, MMTV-luciferase with dexamethasone, overnight; MG213 cells expressing E1A, Rb sequestered; DMSO wells 0%, reference activator 100%; AID 652260, 2013; shares compounds with SMARCA2 act; activation, % at 9.1 µM;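 active = activation above its plate's cutoff, the mean activation of tested wells plus 3 SD, cut at about 7.9% in these data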
GAL4-VP16 Luc = GAL4-VP16 luciferase reporter activation, counter-screen for SMARCA2 (BRM) activator project, cell-based, pG5luc, luminescence, high throughput; activation, % at 9.1 µM; HEK293 GAL4-VP16 pG5luc reporter; scaled: DMSO wells 0%, SAHA wells 100%; 41% of 3,500 active; shares compounds with SMARCA2 act;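 active = activation above the solvent-only control well mean plus 3 SD, averaged across control plates, cut at about 5.2% in these data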
The depositor's hits bear a star; nt = no result given. An excerpt weighted towards active compounds, which were near 2.1% of everything screened.

Codes – A = ERp5 block; B = PDI turbidity; C = GSIS activator; D = Yeast UUG start; E = Rev-erbA mod; F = SMARCA2 act; G = SMARCA2 conf; H = GAL4-VP16 Luc
Nc1nc(CN2CCN(Cc3ccccc3)CC2)nc(Nc2ccc3c(c2)OCCO3)n1
  A: nt | B: 2 | C: nt | D: nt | E: 1 | F: 9.2* | G: 26* | H: 1
Cc1ccc(Nc2nc(N)nc(CN3CCN(Cc4ccc5c(c4)OCO5)CC3)n2)cc1Cl
  A: nt | B: 0 | C: nt | D: -17 | E: -1 | F: -5 | G: nt | H: nt
CCN(CC)C(=O)CCc1nnc(Cc2cccc(C(F)(F)F)c2)o1
  A: 1 | B: 12 | C: 9 | D: nt | E: 1 | F: 16* | G: 3 | H: 9.2*
O=C(C[C@@H]1CC[C@@H](NC(=O)c2ccc(F)cc2)[C@@H](CO)O1)NCc1ccncn1
  A: -4 | B: nt | C: 4 | D: nt | E: nt | F: nt | G: nt | H: nt
C(#Cc1ccccc1)Cn1nnc2ccccc21
  A: nt | B: -6 | C: nt | D: -17 | E: -1 | F: -1 | G: nt | H: nt
c1ccc(CNn2nnc3ccccc32)cc1
  A: 11 | B: nt | C: 8 | D: nt | E: 4 | F: 12* | G: 10.0* | H: 11*
COc1ccc(Nc2nc(N)c3ccccc3n2)c(OC)c1
  A: 4 | B: 12 | C: 46 | D: -13 | E: 4 | F: 11* | G: 9.0* | H: 7.5*
COc1ccc(Nc2nc(-c3ccccc3)nc3ccccc23)c(OC)c1
  A: 2 | B: -5 | C: 2 | D: -6 | E: 5 | F: 0 | G: nt | H: nt
CN(C)c1ccc(-c2noc(C3CCN(S(=O)(=O)c4cccc(C(=O)O)c4)CC3)n2)cc1
  A: 0 | B: -3 | C: -1 | D: -10 | E: -2 | F: 9.7* | G: 4 | H: -2
COc1cccc(CNC(=O)C[C@@H]2CC[C@@H](NC(=O)C3CCC3)[C@H](CO)O2)c1
  A: -2 | B: nt | C: 2 | D: 6 | E: nt | F: nt | G: nt | H: nt

Carrying on:
Codes – A = ERp5 block; B = PDI turbidity; C = GSIS activator; D = Yeast UUG start; E = Rev-erbA mod; F = SMARCA2 act; G = SMARCA2 conf; H = GAL4-VP16 Luc
Cc1ccc2c(c1)C(=NC1CCCCC1)c1cc3ccccc3nc1-2
  A: 8 | B: -9 | C: 5 | D: nt | E: -2 | F: 11* | G: 11* | H: 7.6*
Cc1ccc(-c2cc3ccccc3nc2N2CCCC2)cc1
  A: nt | B: 0 | C: -18 | D: 12 | E: 0 | F: 3 | G: nt | H: nt
C[C@@H]1CN(C)C(=O)c2cccc(NS(C)(=O)=O)c2O[C@@H]1CN(C)S(C)(=O)=O
  A: nt | B: nt | C: 11 | D: nt | E: nt | F: nt | G: nt | H: nt
C[C@H](CO)N1C[C@H](C)[C@H](CN(C)Cc2ccc(Cl)c(Cl)c2)OCc2ccccc2-c2ccccc2C1=O
  A: -1 | B: nt | C: -23 | D: nt | E: nt | F: nt | G: nt | H: nt
O=C(NCCSc1ccccc1)c1ccccc1Cl
  A: 5 | B: 1 | C: 12 | D: nt | E: 4 | F: 8.7* | G: 8.7* | H: 8.8*
O=C(CCNC(=O)c1ccccc1Cl)NCCCSc1ccccc1
  A: -13 | B: 2 | C: -10 | D: -14 | E: 0 | F: -1 | G: nt | H: nt
COc1cc(NC(=O)CSc2c3c(nc4ccccc24)CCC3)cc(OC)c1OC
  A: 0 | B: 13 | C: -4 | D: -6 | E: -5 | F: -2 | G: nt | H: nt
COc1ccc(NC(=O)CSc2c3c(nc4cc(Cl)ccc24)CCCC3)cc1OC
  A: 0 | B: 2 | C: 9 | D: nt | E: 3 | F: 9.4* | G: 3 | H: 1
COc1ccc(C2Nc3ccccc3C(=O)N2c2ccc(C)cc2)cc1Cn1cc([N+](=O)[O-])cn1 (stereo not drawn)
  A: -3 | B: 9 | C: 30 | D: -31 | E: 0 | F: 9.8* | G: 2 | H: 7.4*
COc1ccc(/C=N/Nc2cc(C)nc3ccc(Br)cc23)cc1
  A: 1 | B: -1 | C: 5 | D: 5 | E: -1 | F: 9.4* | G: 4 | H: 1

(list continues)
Codes – A = ERp5 block; B = PDI turbidity; C = GSIS activator; D = Yeast UUG start; E = Rev-erbA mod; F = SMARCA2 act; G = SMARCA2 conf; H = GAL4-VP16 Luc
COc1cccc2c(N/N=C/c3ccccc3)cc(C)nc12
  A: 4 | B: -1 | C: 23 | D: -11 | E: -5 | F: 5 | G: nt | H: nt
COc1ccc2nc(C)cc(N/N=C/c3cccc(OC)c3O)c2c1
  A: 6 | B: -1 | C: 14 | D: -5 | E: 3 | F: 27* | G: 20* | H: 2
Cc1cc(N/N=C/c2ccccc2O)c2ccccc2n1
  A: 3 | B: -9 | C: -3 | D: -5 | E: 7 | F: 6 | G: nt | H: nt
CNC(=O)C[C@@H]1CC[C@H]2[C@H](COc3ccc(NC(=O)Nc4ccccc4)cc3C(=O)N2C)O1
  A: 8 | B: nt | C: 0 | D: 2 | E: nt | F: nt | G: nt | H: nt
CCCNC(=O)[C@@H]1[C@@H](CO)[C@@H]2Cn3c(cccc3=O)[C@@H]2N1C(=O)C1CC1
  A: 6 | B: nt | C: -6 | D: nt | E: nt | F: nt | G: nt | H: nt
C[C@@H](NC(=O)C[C@@H]1C=C[C@H](NC(=O)Cc2ccccn2)[C@H](CO)O1)c1ccccc1
  A: -4 | B: nt | C: 13 | D: nt | E: nt | F: nt | G: nt | H: nt
Cc1cc(O)c(NC(=O)c2ccco2)cc1C
  A: nt | B: -5 | C: nt | D: -8 | E: -6 | F: 8.9* | G: 0 | H: 5
Cc1ccc(O)c(NC(=O)c2ccco2)c1
  A: nt | B: 2 | C: nt | D: -6 | E: -2 | F: 3 | G: nt | H: nt
CO[C@H]1CN(C)C(=O)c2cc(NS(C)(=O)=O)ccc2OC[C@@H](C)N(CC2CC2)C[C@@H]1C
  A: -1 | B: nt | C: 17 | D: -7 | E: nt | F: nt | G: nt | H: nt
COCCCNC(=O)c1ccc2nc(Cc3ccc(OC)cc3)oc2c1
  A: 4 | B: 7 | C: -6 | D: -1 | E: -4 | F: 11* | G: 5 | H: 9.3*

Next part; the last three above are carried over.
Codes – A = ERp5 block; B = PDI turbidity; C = GSIS activator; D = Yeast UUG start; E = Rev-erbA mod; F = SMARCA2 act; G = SMARCA2 conf; H = GAL4-VP16 Luc
Cc1ccc(O)c(NC(=O)c2ccco2)c1
  A: nt | B: 2 | C: nt | D: -6 | E: -2 | F: 3 | G: nt | H: nt
CO[C@H]1CN(C)C(=O)c2cc(NS(C)(=O)=O)ccc2OC[C@@H](C)N(CC2CC2)C[C@@H]1C
  A: -1 | B: nt | C: 17 | D: -7 | E: nt | F: nt | G: nt | H: nt
COCCCNC(=O)c1ccc2nc(Cc3ccc(OC)cc3)oc2c1
  A: 4 | B: 7 | C: -6 | D: -1 | E: -4 | F: 11* | G: 5 | H: 9.3*
C=CCNC(=O)c1ccc2nc(Cc3ccc(OC)cc3)oc2c1
  A: 0 | B: 6 | C: -3 | D: 9 | E: -1 | F: 7 | G: nt | H: nt
COc1ccc(S(=O)(=O)Nc2cccc3c2O[C@@H](CN(C)C(=O)Nc2ccc(C(F)(F)F)cc2)[C@H](C)CN([C@H](C)CO)C3=O)cc1
  A: -2 | B: nt | C: -26 | D: 6 | E: nt | F: nt | G: nt | H: nt
O=C1C(=Cc2ccco2)CCCC1=Cc1ccco1
  A: 0 | B: -4 | C: -25 | D: -27 | E: -10 | F: 8.1* | G: 16* | H: 7.2*
O=C1C(=Cc2ccco2)CCC1=Cc1ccco1
  A: 8 | B: 23 | C: -2 | D: -19 | E: -20 | F: -4 | G: nt | H: nt
CCCNC(=O)Nc1ccc2c(c1)OC[C@@H](C)N(C(C)=O)C[C@@H](C)[C@@H](OC)CN(C)C2=O
  A: 3 | B: nt | C: -18 | D: nt | E: nt | F: nt | G: nt | H: nt
COCCNS(=O)(=O)c1ccc(F)c(OC)c1
  A: nt | B: 1 | C: -2 | D: -15 | E: -4 | F: 14* | G: -1 | H: 1
O=C(Cc1ccccn1)NCC[C@@H]1CC[C@@H](NC(=O)Nc2ccccc2)[C@H](CO)O1
  A: 4 | B: nt | C: 5 | D: 15 | E: nt | F: nt | G: nt | H: nt
N/C(=N\OC(=O)c1cccs1)c1cccc([N+](=O)[O-])c1
  A: 6 | B: 11 | C: 3 | D: 0 | E: -6 | F: 11* | G: 2 | H: 6.5*
O=C(Cc1ccccc1[N+](=O)[O-])NCC(=O)c1ccc2c(c1)OCO2
  A: -6 | B: 3 | C: 12 | D: nt | E: 6 | F: -2 | G: nt | H: nt
N/C(=N\OC(=O)c1ccc2c(c1)OCO2)c1cccc([N+](=O)[O-])c1
  A: 1 | B: 12 | C: 6 | D: nt | E: 8 | F: 9.9* | G: 12* | H: 9.4*
Cc1cccc(C(=O)O/N=C(\N)c2cccc([N+](=O)[O-])c2)c1
  A: 7 | B: 1 | C: -9 | D: -16 | E: -2 | F: nt | G: nt | H: nt
O=C(Cc1ccccc1[N+](=O)[O-])c1ccc2c(c1)OCO2
  A: -4 | B: 2 | C: nt | D: nt | E: 7 | F: 11* | G: 4 | H: 3
O=C(N[C@H]1CC[C@@H](CCNS(=O)(=O)c2ccc(F)cc2)O[C@H]1CO)C1CCCC1
  A: 3 | B: nt | C: 13 | D: 3 | E: nt | F: nt | G: nt | H: nt

Bioassay records as filed in PubChem BioAssay.
